In PubChem BioAssay AID624352 (Sanford-Burnham Center for Chemical Genomics, 2012):
This is a selection; strong and weak results do not stand in their true shares. Active and inactive are the calls of the source.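 Rule for the calls: active = inhibition of the luminescence signal of 40% or more relative to plate controls, in a single-dose primary screen at 18.75 µM; inactive = the rest.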

Test: HIF-2a reporter inhibitors, primary screen, luminescence, 786-0 RCC cells (AID 624352)
Conditions: 786-0 RCC cells HIF-2a reporter, luciferase luminescence, overnight; at 18.8 µM; active compounds read high
For `CCN1CCC(Nc2ccc(Cl)cc2)CC1`, the inhibition was inactive: 12.5%. In the case of `O=c1[nH]c2ccccc2n1C1CCN(C(c2ccccc2OC(F)(F)F)c2nnnn2C2CCCC2)CC1` (stereo not drawn), the inhibition is reported as inactive: -14.3%. For `N#CC1(Nc2ccccc2)CCN(CCc2ccccc2)CC1`, the inhibition was inactive: 17.2%. For `O=C(NCC1(N2CCCCC2)CCCCC1)c1cccc([N+](=O)[O-])c1`, the inhibition was inactive: 13.6%. With `CSc1ccc(C(=O)NCC2(N3CCOCC3)CCCCC2)cc1` the inhibition was inactive: 1.51%. For `CC(C)(C)n1nnnc1C(c1ccccc1OC(F)(F)F)N1CCC(n2c(=O)[nH]c3ccccc32)CC1` (stereo not drawn), the inhibition was inactive: -7.86%. In the case of `O=C(NCC1(N2CCCCC2)CCCCC1)c1ccc(OC(F)F)cc1`, the inhibition is reported as inactive: 5.59%. With `COc1cc(C(=O)NCC2(N3CCCCC3)CCCCC2)ccc1OC(F)F` the inhibition was inactive: 0.6%. For `O=C(NCC1(N2CCOCC2)CCCCC1)c1cc(=O)[nH]c2ccccc12`, the inhibition was inactive: 18.2%. In the case of `CN1CCN(CCOC(=O)C(O)(c2ccccc2)c2ccccc2)CC1`, the inhibition is reported as inactive: 11.9%. For `CC(C)c1ccc(C(=O)NCC2(N3CCOCC3)CCCCC2)cc1`, the inhibition was inactive: -38.6%. In the case of `COc1ccc(NC2CCN(C(=O)OC(C)(C)C)CC2)cc1`, the inhibition is reported as inactive: -20.2%. With `CCCCn1nnnc1C(c1cccc2ccccc12)N1CCC(n2c(=O)[nH]c3ccccc32)CC1` (stereo not drawn) the inhibition was inactive: 4.29%. For `O=C(NCC1(N2CCCCC2)CCCCC1)c1cccc(C(F)(F)F)c1`, the inhibition was inactive: -7.65%. For `COc1cc(OC)c(C(=O)NCC2(N(C)C)CCCCC2)cc1OC`, the inhibition was inactive: 3.88%. In the case of `O=C(NCC1(N2CCOCC2)CCCCC1)c1cc(F)c(F)cc1Cl`, the inhibition is reported as inactive: -2.18%. In the case of `CCC(c1nnnn1C(C)(C)C)N1CCC(n2c(=O)[nH]c3ccccc32)CC1` (stereo not drawn), the inhibition is reported as inactive: 0.908%. For `CCCCn1nnnc1C(c1ccnc2ccccc12)N1CCC(n2c(=O)[nH]c3ccccc32)CC1` (stereo not drawn), the inhibition was inactive: 14.2%. With `CCCCn1nnnc1C(c1ccccc1OC(F)(F)F)N1CCC(n2c(=O)[nH]c3ccccc32)CC1` (stereo not drawn) the inhibition was inactive: -9.05%. In the case of `CC(C)c1ccc(NC2CCN(C(=O)OC(C)(C)C)CC2)cc1`, the inhibition is reported as inactive: -253%. With `COc1ccc(CN(CCCl)CCCl)cc1Cl` the inhibition was inactive: 18.7%. With `CN(C)c1cccc(C(=O)NCC2(N3CCCCC3)CCCCC2)c1` the inhibition was inactive: 16.2%. With `COc1ccc(C(c2nnnn2C2CCCC2)N2CCC(n3c(=O)[nH]c4ccccc43)CC2)cc1` (stereo not drawn) the inhibition was inactive: -9.18%. For `Cc1ccc(C(=O)NCC2(N(C)C)CCCCC2)o1`, the inhibition was inactive: 1.76%. For `CCCOc1ccc(C(=O)NCC2(N(C)C)CCCCC2)cc1OC`, the inhibition was inactive: 18.3%. With `CN1CCC(Nc2cccc(F)c2)CC1` the inhibition was inactive: 21.2%. With `O=C(NCC1(N2CCCCC2)CCCCC1)c1cncc(Br)c1` the inhibition was inactive: -0.384%. For `CSc1ccccc1C(=O)NCC1(N2CCCCC2)CCCCC1`, the inhibition was inactive: 9.73%. In the case of `Cc1cccc(NC2(C#N)CCN(Cc3ccccc3)CC2)c1`, the inhibition is reported as inactive: 8.51%. With `COc1ccc(C(=O)NCC2(N3CCCCC3)CCCCC2)cc1` the inhibition was inactive: 7.42%. In the case of `CC(C)(C)OC(=O)N1CCC(N(C(=O)c2ccccc2)c2ccc(F)cc2)CC1`, the inhibition is reported as inactive: 7.63%. In the case of `COc1ccc(C(=O)NCC2(N3CCCCC3)CCCCC2)c(OC)c1OC`, the inhibition is reported as inactive: 4.53%. In the case of `CCC(c1nnnn1C1CCCC1)N1CCC(n2c(=O)[nH]c3ccccc32)CC1` (stereo not drawn), the inhibition is reported as inactive: -19.4%. With `O=C(NCC1(N2CCCCC2)CCCCC1)c1ccc(=O)[nH]c1` the inhibition was inactive: -0.126%. For `O=C(NCC1(N2CCCCC2)CCCCC1)c1cccs1`, the inhibition was inactive: 7.16%. In the case of `CCCCn1nnnc1C(CC)N1CCC(n2c(=O)[nH]c3ccccc32)CC1` (stereo not drawn), the inhibition is reported as inactive: 1.69%. In the case of `CCCCn1nnnc1C(c1cccs1)N1CCC(n2c(=O)[nH]c3ccccc32)CC1` (stereo not drawn), the inhibition is reported as inactive: 4.1%. For `O=C(NCC1(N2CCCCC2)CCCCC1)c1ccc(Cl)s1`, the inhibition was inactive: 4.92%. For `N#CC1(Nc2ccccc2)CCN(Cc2ccccc2)CC1`, the inhibition was inactive: 15.7%. In the case of `O=C(OC1CN2CCC1CC2)C1c2ccccc2Oc2ccccc21` (stereo not drawn), the inhibition is reported as inactive: -10.5%. For `O=c1[nH]c2ccccc2n1C1CCN(C(c2cc3ccccc3o2)c2nnnn2C2CCCCC2)CC1` (stereo not drawn), the inhibition was inactive: -76.9%. For `COc1ccc(Cl)cc1C(=O)NCC1(N2CCOCC2)CCCCC1`, the inhibition was inactive: -14.8%. In the case of `CCOC(=O)N1CCC(Nc2ccc(OC)cc2)CC1`, the inhibition is reported as inactive: 14.6%. For `CCCCn1nnnc1C(c1ccc(OC)cc1)N1CCC(n2c(=O)[nH]c3ccccc32)CC1` (stereo not drawn), the inhibition was inactive: 15.3%. With `O=C(NCC1(N2CCCCC2)CCCCC1)c1ccc(Cl)nc1` the inhibition was inactive: 6.92%. With `O=c1[nH]c2ccccc2n1C1CCN(C(c2ccccc2OC(F)(F)F)c2nnnn2C2CCCCC2)CC1` (stereo not drawn) the inhibition was inactive: -23.1%. With `Cc1cc(C)cc(N(C(=O)c2ccccc2)C2CCN(C(=O)OC(C)(C)C)CC2)c1` the inhibition was inactive: 11.6%. In the case of `O=C(NCC1(N2CCOCC2)CCCCC1)c1cc2ccccc2o1`, the inhibition is reported as inactive: 13.7%. For `CCCCn1nnnc1C(c1cc2ccccc2o1)N1CCC(n2c(=O)[nH]c3ccccc32)CC1` (stereo not drawn), the inhibition was inactive: -51.2%. With `O=P1(N(CCCl)CCCl)SCCCS1` the inhibition was inactive: 16.6%. In the case of `CCCCOc1ccc(C(=O)NCC2(N3CCOCC3)CCCCC2)cc1`, the inhibition is reported as inactive: -10.8%. In the case of `O=C(NCC1(N2CCCCC2)CCCCC1)c1ccc(F)cc1`, the inhibition is reported as inactive: 6.12%. For `COc1ccc(NC2CCN(CCc3ccccc3)CC2)c(OC)c1`, the inhibition was inactive: 1.46%. In the case of `CCOC(=O)N1CCC(Nc2ccc(F)cc2)CC1`, the inhibition is reported as inactive: 14.5%. For `CC(C)(C)n1nnnc1C(c1ccccc1)N1CCC(n2c(=O)[nH]c3ccccc32)CC1` (stereo not drawn), the inhibition was inactive: 10.2%. In the case of `O=C1CCN(Cc2ccccc2)CC1`, the inhibition is reported as inactive: 2.58%. In the case of `CCOc1ccc(C)cc1CN(CCCl)CCCl`, the inhibition is reported as inactive: -0.734%. With `CCOC(=O)N1CCC(Nc2cccc(C)c2)CC1` the inhibition was inactive: 14.3%. In the case of `COc1cc(C(=O)NCC2(N(C)C)CCCCC2)ccc1OC(F)F`, the inhibition is reported as inactive: 16.4%. In the case of `O=c1[nH]c2ccccc2n1C1CCN(C(c2cccc3ccccc23)c2nnnn2C2CCCC2)CC1` (stereo not drawn), the inhibition is reported as inactive: -2.42%. In the case of `O=c1[nH]c2ccccc2n1C1CCN(C(c2ccccc2)c2nnnn2C2CCCCC2)CC1` (stereo not drawn), the inhibition is reported as inactive: 3.99%. With `Cc1ccc(C(=O)NCC2(N3CCCCC3)CCCCC2)o1` the inhibition was inactive: 5.83%. In the case of `Fc1ccccc1NC1CCN(Cc2ccccc2)CC1`, the inhibition is reported as inactive: 15.3%. With `Cc1ccc(NC2(C#N)CCN(Cc3ccccc3)CC2)cc1` the inhibition was inactive: 6.99%. For `COc1cccc(C(c2nnnn2C2CCCCC2)N2CCC(n3c(=O)[nH]c4ccccc43)CC2)c1OC` (stereo not drawn), the inhibition was inactive: -15.4%. For `CC(=O)N(c1ccccc1)C1CCNCC1`, the inhibition was inactive: 4.2%. With `CCC(c1nnnn1C1CCCCC1)N1CCC(n2c(=O)[nH]c3ccccc32)CC1` (stereo not drawn) the inhibition was inactive: -1.51%. With `COc1cc(OC)cc(C(=O)NCC2(N3CCCCC3)CCCCC2)c1` the inhibition was inactive: 18.8%. With `O=c1[nH]c2ccccc2n1C1CCN(C(c2ccnc3ccccc23)c2nnnn2C2CCCCC2)CC1` (stereo not drawn) the inhibition was inactive: 17.6%. For `O=C(NCC1(N2CCCCC2)CCCCC1)c1ccco1`, the inhibition was inactive: 5.93%. For `CN(C)c1ccc(C(=O)NCC2(N3CCCCC3)CCCCC2)cc1`, the inhibition was inactive: 14.4%. For `Cn1c(=O)[nH]cc(N(CCCl)CCCl)c1=O`, the inhibition was inactive: 5.28%. In the case of `Cc1ccccc1NC1(C#N)CCN(Cc2ccccc2)CC1`, the inhibition is reported as inactive: 1.48%. With `CCN1CCC(Nc2cccc(F)c2)CC1` the inhibition was inactive: 12.6%. For `COc1ccc(C(c2nnnn2C2CCCCC2)N2CCC(n3c(=O)[nH]c4ccccc43)CC2)cc1` (stereo not drawn), the inhibition was inactive: -5.17%. For `CC(C)(C)n1nnnc1C(c1ccnc2ccccc12)N1CCC(n2c(=O)[nH]c3ccccc32)CC1` (stereo not drawn), the inhibition was inactive: 26%. In the case of `CC(C)(C)OC(=O)N1CCC(Nc2ccccc2)CC1`, the inhibition is reported as inactive: 0.308%. In the case of `O=C(O)C1(Nc2ccccc2)CCN(Cc2ccccc2)CC1`, the inhibition is reported as inactive: 10.7%. With `NN(c1ccccc1)C1CCN(CCc2ccccc2)CC1` the inhibition was inactive: 3.68%. In the case of `O=c1[nH]c2ccccc2n1C1CCN(C(c2cc3ccccc3o2)c2nnnn2C2CCCC2)CC1` (stereo not drawn), the inhibition is reported as inactive: -106%. In the case of `CCCOc1ccc(C(=O)NCC2(N(C)C)CCCCC2)cc1`, the inhibition is reported as inactive: 15.1%. For `CCOc1ncccc1C(=O)NCC1(N2CCOCC2)CCCCC1`, the inhibition was inactive: 21.5%. In the case of `CN1CCC(Nc2ccc(F)c(Cl)c2)CC1`, the inhibition is reported as inactive: 11.3%. In the case of `CN1CCC(Nc2ccc(Cl)cc2)CC1`, the inhibition is reported as inactive: 3.5%. With `COc1cc(OC)cc(C(=O)NCC2(N3CCOCC3)CCCCC2)c1` the inhibition was inactive: 16.1%. In the case of `COc1cccc(C(c2nnnn2C2CCCC2)N2CCC(n3c(=O)[nH]c4ccccc43)CC2)c1OC` (stereo not drawn), the inhibition is reported as inactive: 2.85%. For `COc1cccc(C(=O)N(c2cc(C)cc(C)c2)C2CCN(C(=O)OC(C)(C)C)CC2)c1`, the inhibition was inactive: 18.6%. In the case of `CCC(CO)(C(=O)OC1CN2CCC1CC2)c1ccccc1` (stereo not drawn), the inhibition is reported as inactive: 19%. For `O=c1[nH]c2ccccc2n1C1CCN(C(c2cccs2)c2nnnn2C2CCCCC2)CC1` (stereo not drawn), the inhibition was inactive: -2.69%. With `COc1ccc(C(=O)NCC2(N3CCOCC3)CCCCC2)cc1OC` the inhibition was inactive: 12.7%. With `O=c1[nH]c2ccccc2n1C1CCN(C(c2ccnc3ccccc23)c2nnnn2C2CCCC2)CC1` (stereo not drawn) the inhibition was inactive: 26.9%. With `CCCCn1nnnc1C(c1ccccc1)N1CCC(n2c(=O)[nH]c3ccccc32)CC1` (stereo not drawn) the inhibition was inactive: 6.84%. In the case of `COc1cc(C(=O)NCC2(N3CCOCC3)CCCCC2)cc(OC)c1C`, the inhibition is reported as inactive: 15.4%. For `O=C(NCC1(N2CCOCC2)CCCCC1)c1cc(Br)ccc1Cl`, the inhibition was inactive: 3.27%. For `O=C(OC1CN2CCC1CC2)C1c2ccccc2C=Cc2ccccc21` (stereo not drawn), the inhibition was inactive: -5.5%. For `O=c1[nH]c2ccccc2n1C1CCN(C(c2cccs2)c2nnnn2C2CCCC2)CC1` (stereo not drawn), the inhibition was inactive: 8.25%. In the case of `CCCCn1nnnc1C(c1cccc(OC)c1OC)N1CCC(n2c(=O)[nH]c3ccccc32)CC1` (stereo not drawn), the inhibition is reported as inactive: 8.7%. With `CCOC(=O)N1CCC(Nc2ccc(C)cc2)CC1` the inhibition was inactive: -2.69%. With `COc1cccc(C(c2nnnn2C(C)(C)C)N2CCC(n3c(=O)[nH]c4ccccc43)CC2)c1OC` (stereo not drawn) the inhibition was inactive: 16.7%. With `N/C(=N\O)c1c(N)no[n+]1[O-]` the inhibition was inactive: 17.9%. For `N#Cc1ccc(C(=O)NCC2(N3CCCCC3)CCCCC2)cc1`, the inhibition was inactive: 4.88%. For `CC(C)(C)OC(=O)N1CCC(N(C(=O)c2ccccc2)c2ccc(Cl)cc2)CC1`, the inhibition was inactive: 14.3%. In the case of `CC(C)(C)n1nnnc1C(c1cccc2ccccc12)N1CCC(n2c(=O)[nH]c3ccccc32)CC1` (stereo not drawn), the inhibition is reported as inactive: -8.57%. With `CN(C)C1(CNC(=O)c2cccc(C#N)c2)CCCCC1` the inhibition was inactive: 19%. With `c1ccc(CN2CCC(Nc3ccccc3)CC2)cc1` the inhibition was inactive: 13.4%. In the case of `Cc1cc(N(CCCl)CCCl)ccc1C=O`, the inhibition is reported as inactive: 6.48%. In the case of `O=c1[nH]c2ccccc2n1C1CCN(C(c2ccccc2)c2nnnn2C2CCCC2)CC1` (stereo not drawn), the inhibition is reported as inactive: 16%. For `CCCN1CCC(Nc2cc(OC)cc(OC)c2)CC1`, the inhibition was inactive: 15.9%.
